Source: PubChem BioAssay AID2462 (Broad Institute, 2010)
Only a part is listed here, and it is no random draw. Activity calls are given as the source filed them.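 Rule for the calls: active = over half of replicate activation scores above 10%, or exactly half above 10 with the replicate mean above 10; inconclusive = replicate mean below 10 yet half the replicates above 10; inactive = over half of replicates below 10.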

Test: caspase 3/7 activation in MEF A1-2A-BIM cells, primary screen, A1 inhibitor project, cell-based, luminescence, HTS (AID 2462)
Settings: Caspase-Glo 3/7 luminescence, 3 h, hits give high values, percent of clofoctol response, vehicle zero, concentration not given here

With `CN1CCC(Nc2ccc(Cl)cc2)CC1` as the compound, how does the caspase activation read?
Its caspase activation is inactive: 1.14%.

With `CCCOc1ccc(C)cc1CN(CCCl)CCCl` as the compound, how does the caspase activation read?
Its caspase activation is inactive: 1.48%.

Which caspase activation does the source give for `COc1cccc(C(=O)N(c2cc(C)cc(C)c2)C2CCN(C(=O)OC(C)(C)C)CC2)c1` here?
The caspase activation was inactive: 0.356%.

With `COc1cc(OC)cc(C(=O)NCC2(N3CCOCC3)CCCCC2)c1` as the compound, how does the caspase activation read?
The caspase activation was inactive: -0.949%.

For `CCC(CO)(C(=O)OC1CN2CCC1CC2)c1ccccc1` (stereo not given), which caspase activation is on record?
The caspase activation was inactive: 1.03%.

Which caspase activation does the source give for `CC(C)(C)OC(=O)N1CCC(Nc2ccccc2)CC1` here?
The caspase activation was inactive: 1.21%.

For `O=C(O)C1(Nc2ccccc2)CCN(Cc2ccccc2)CC1`, which caspase activation is on record?
Its caspase activation is inactive: 0.182%.

For `CCCOc1ccc(C(=O)NCC2(N(C)C)CCCCC2)cc1`, which caspase activation is on record?
The caspase activation was inactive: 0.368%.

For `CCOc1ncccc1C(=O)NCC1(N2CCOCC2)CCCCC1`, which caspase activation is on record?
The caspase activation was inactive: 0.175%.

Which caspase activation does the source give for `CN1CCC(Nc2ccc(F)c(Cl)c2)CC1` here?
The caspase activation was inactive: -0.862%.

Which caspase activation does the source give for `O=C(NCC1(N2CCCCC2)CCCCC1)c1ccco1` here?
The caspase activation was inactive: 0.441%.

With `CN(C)c1ccc(C(=O)NCC2(N3CCCCC3)CCCCC2)cc1` as the compound, how does the caspase activation read?
Its caspase activation is inactive: 0.695%.

With `CCN1CCC(Nc2cccc(F)c2)CC1` as the compound, how does the caspase activation read?
The caspase activation was inactive: -0.525%.

With `Cc1ccc(C(=O)NCC2(N3CCCCC3)CCCCC2)o1` as the compound, how does the caspase activation read?
Its caspase activation is inactive: -0.123%.

With `Fc1ccccc1NC1CCN(Cc2ccccc2)CC1` as the compound, how does the caspase activation read?
The caspase activation was inactive: -0.365%.

Which caspase activation does the source give for `COc1cc(OC)cc(C(=O)NCC2(N3CCCCC3)CCCCC2)c1` here?
Its caspase activation is inactive: 1.29%.

For `CN(C)C1(CNC(=O)c2cccc(C#N)c2)CCCCC1`, which caspase activation is on record?
The caspase activation was inactive: 0.284%.

With `c1ccc(CN2CCC(Nc3ccccc3)CC2)cc1` as the compound, how does the caspase activation read?
Its caspase activation is inactive: 0.473%.

With `CCCN1CCC(Nc2cc(OC)cc(OC)c2)CC1` as the compound, how does the caspase activation read?
The caspase activation was inactive: -1.13%.

Which caspase activation does the source give for `N#Cc1ccc(C(=O)NCC2(N3CCCCC3)CCCCC2)cc1` here?
The caspase activation was inactive: -0.374%.

For `CC(C)(C)OC(=O)N1CCC(N(C(=O)c2ccccc2)c2ccc(Cl)cc2)CC1`, which caspase activation is on record?
Its caspase activation is inactive: 0.0771%.

Which caspase activation does the source give for `CCc1cc(C(=O)NCC2(N3CCCCC3)CCCCC2)sc1C` here?
Its caspase activation is inactive: -0.212%.

For `O=C(OC1CN2CCC1CC2)C1c2ccccc2C=Cc2ccccc21` (stereo not given), which caspase activation is on record?
Its caspase activation is inactive: -0.74%.

For `CCOC(=O)N1CCC(Nc2ccc(C)cc2)CC1`, which caspase activation is on record?
Its caspase activation is inactive: -0.186%.

Which caspase activation does the source give for `N/C(=N\O)c1c(N)no[n+]1[O-]` here?
The caspase activation was inactive: -1.22%.

With `COc1ccc(C(=O)NCC2(N3CCOCC3)CCCCC2)cc1OC` as the compound, how does the caspase activation read?
Its caspase activation is inactive: -0.108%.

With `COc1cc(C(=O)NCC2(N3CCOCC3)CCCCC2)cc(OC)c1C` as the compound, how does the caspase activation read?
Its caspase activation is inactive: -0.409%.

For `O=C(NCC1(N2CCOCC2)CCCCC1)c1cc(Br)ccc1Cl`, which caspase activation is on record?
The caspase activation was inactive: -1.42%.

With `CCCOc1ccc(C(=O)NCC2(N(C)C)CCCCC2)cc1OC` as the compound, how does the caspase activation read?
Its caspase activation is inactive: 1.09%.

For `CN1CCC(Nc2cccc(F)c2)CC1`, which caspase activation is on record?
Its caspase activation is inactive: 0.266%.

Which caspase activation does the source give for `O=C(NCC1(N2CCCCC2)CCCCC1)c1cncc(Br)c1` here?
Its caspase activation is inactive: -0.165%.

Which caspase activation does the source give for `COc1cc(OC)c(C(=O)NCC2(N(C)C)CCCCC2)cc1OC` here?
The caspase activation was inactive: 0.446%.

With `O=C(NCC1(N2CCOCC2)CCCCC1)c1cc(F)c(F)cc1Cl` as the compound, how does the caspase activation read?
Its caspase activation is inactive: -1.56%.

With `CC(C)c1ccc(NC2CCN(C(=O)OC(C)(C)C)CC2)cc1` as the compound, how does the caspase activation read?
The caspase activation was inactive: -0.419%.

With `COc1ccc(CN(CCCl)CCCl)cc1Cl` as the compound, how does the caspase activation read?
Its caspase activation is inactive: -0.592%.

For `CN(C)c1cccc(C(=O)NCC2(N3CCCCC3)CCCCC2)c1`, which caspase activation is on record?
The caspase activation was inactive: 1.22%.

Which caspase activation does the source give for `O=C(NCC1(N2CCOCC2)CCCCC1)c1cc(=O)[nH]c2ccccc12` here?
Its caspase activation is inactive: -0.264%.

With `COc1cc(C(=O)NCC2(N3CCCCC3)CCCCC2)ccc1OC(F)F` as the compound, how does the caspase activation read?
Its caspase activation is inactive: 0.233%.

With `COc1ccc(NC2CCN(C(=O)OC(C)(C)C)CC2)cc1` as the compound, how does the caspase activation read?
The caspase activation was inactive: -0.49%.

For `CN1CCN(CCOC(=O)C(O)(c2ccccc2)c2ccccc2)CC1`, which caspase activation is on record?
Its caspase activation is inactive: 0.942%.

With `O=C(NCC1(N2CCCCC2)CCCCC1)c1cccc(C(F)(F)F)c1` as the compound, how does the caspase activation read?
Its caspase activation is inactive: -0.192%.

For `CCN1CCC(Nc2ccc(Cl)cc2)CC1`, which caspase activation is on record?
The caspase activation was inactive: -7.63%.

With `N#CC1(Nc2ccccc2)CCN(CCc2ccccc2)CC1` as the compound, how does the caspase activation read?
Its caspase activation is inactive: 0.452%.

For `O=C(NCC1(N2CCCCC2)CCCCC1)c1cccc([N+](=O)[O-])c1`, which caspase activation is on record?
Its caspase activation is inactive: 0.37%.

For `O=C(NCC1(N2CCCCC2)CCCCC1)c1ccc(OC(F)F)cc1`, which caspase activation is on record?
Its caspase activation is inactive: 0.143%.

For `COc1cc(C(=O)NCC2(N(C)C)CCCCC2)ccc1OC(F)F`, which caspase activation is on record?
The caspase activation was inactive: 0.992%.

With `Cc1ccc(OCC(C)C)c(CN(CCCl)CCCl)c1` as the compound, how does the caspase activation read?
Its caspase activation is inactive: 1.55%.

For `O=C(NCC1(N2CCCCC2)CCCCC1)c1ccc(F)cc1`, which caspase activation is on record?
The caspase activation was inactive: 0.182%.

Which caspase activation does the source give for `CCOC(=O)N1CCC(Nc2ccc(F)cc2)CC1` here?
Its caspase activation is inactive: 0.614%.

Which caspase activation does the source give for `COc1ccc(NC2CCN(CCc3ccccc3)CC2)c(OC)c1` here?
Its caspase activation is inactive: 0.349%.

Which caspase activation does the source give for `CCOc1ccc(C)cc1CN(CCCl)CCCl` here?
Its caspase activation is inactive: 1.83%.

With `N#CC1(Nc2ccccc2)CCN(Cc2ccccc2)CC1` as the compound, how does the caspase activation read?
The caspase activation was inactive: 0.117%.

With `O=C(NCC1(N2CCCCC2)CCCCC1)c1ccc(Cl)s1` as the compound, how does the caspase activation read?
The caspase activation was inactive: 0.383%.

With `O=C(OC1CN2CCC1CC2)C1c2ccccc2Oc2ccccc21` (stereo not given) as the compound, how does the caspase activation read?
Its caspase activation is inactive: 0.701%.

For `COc1ccc(Cl)cc1C(=O)NCC1(N2CCOCC2)CCCCC1`, which caspase activation is on record?
Its caspase activation is inactive: -0.112%.

Which caspase activation does the source give for `CCOC(=O)N1CCC(Nc2ccc(OC)cc2)CC1` here?
The caspase activation was inactive: 0.111%.

With `O=C(NCC1(N2CCCCC2)CCCCC1)c1ccc(Cl)nc1` as the compound, how does the caspase activation read?
Its caspase activation is inactive: -0.65%.

Which caspase activation does the source give for `Cc1cc(C)cc(N(C(=O)c2ccccc2)C2CCN(C(=O)OC(C)(C)C)CC2)c1` here?
The caspase activation was inactive: 1.23%.

With `O=C(NCC1(N2CCOCC2)CCCCC1)c1cc2ccccc2o1` as the compound, how does the caspase activation read?
The caspase activation was inactive: -0.557%.

Which caspase activation does the source give for `CSc1ccccc1C(=O)NCC1(N2CCCCC2)CCCCC1` here?
Its caspase activation is inactive: 0.35%.

With `COc1ccc(C(=O)NCC2(N3CCCCC3)CCCCC2)cc1` as the compound, how does the caspase activation read?
The caspase activation was inactive: -0.379%.

Which caspase activation does the source give for `CC(C)(C)OC(=O)N1CCC(N(C(=O)c2ccccc2)c2ccc(F)cc2)CC1` here?
Its caspase activation is inactive: 0.716%.

For `COc1ccc(C(=O)NCC2(N3CCCCC3)CCCCC2)c(OC)c1OC`, which caspase activation is on record?
Its caspase activation is inactive: 1.22%.

Which caspase activation does the source give for `O=C(NCC1(N2CCCCC2)CCCCC1)c1ccc(=O)[nH]c1` here?
The caspase activation was inactive: 0.473%.

For `O=C(NCC1(N2CCCCC2)CCCCC1)c1cccs1`, which caspase activation is on record?
The caspase activation was inactive: 1.09%.
